Where “and” joins values, the source holds several entries; their conditions need not be identical. Equal values may be shown once.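 Grown in 96-well plates, cells were treated for 48 hours with each compound at five concentrations. Insufficient inhibition: endpoint recorded as highest concentration tested. GI50: concentration for 50% inhibition of growth. TGI is the concentration that stops growth completely.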
What was measured:
Test in all cases: NCI tumour cell line growth inhibition, 48 h
[1] = test system: A498 renal
[2] = test system: A549 NSCLC
[3] = test system: CAKI-1 renal
[4] = test system: CCRF-CEM leukemia
[5] = test system: COLO 205 colon
[6] = test system: DLD-1 colon
[7] = test system: DMS 114 small cell lung
[8] = test system: DMS 273 small cell lung
[9] = test system: EKVX NSCLC
[10] = test system: HCC-2998 colon
[11] = test system: HCT-116 colon
[12] = test system: HCT-15 colon
[13] = test system: HL-60(TB) leukemia
[14] = test system: HOP-18 NSCLC
[15] = test system: HOP-62 NSCLC
[16] = test system: HOP-92 NSCLC
[17] = test system: HT29 colon
[18] = test system: IGROV1 ovarian
[19] = test system: K-562 leukemia
[20] = test system: KM12 colon
[21] = test system: KM20L2 colon
[22] = test system: LOX IMVI melanoma
[23] = test system: M19-MEL melanoma
[24] = test system: MALME-3M melanoma
[25] = test system: MCF7 breast
[26] = test system: MOLT-4 leukemia
[27] = test system: NCI-H226 lung
[28] = test system: NCI-H23 lung
[29] = test system: NCI-H322M lung
[30] = test system: NCI-H460 lung
[31] = test system: NCI-H522 lung
[32] = test system: NCI/ADR-RES ovarian
[33] = test system: OVCAR-3 ovarian
[34] = test system: OVCAR-4 ovarian
[35] = test system: OVCAR-5 ovarian
[36] = test system: OVCAR-8 ovarian
[37] = test system: P388 leukemia
[38] = test system: P388/ADR leukemia
[39] = test system: RPMI-8226 leukemia
[40] = test system: RXF 393 renal
[41] = test system: SF-268 CNS
[42] = test system: SF-295 CNS
[43] = test system: SF-539 CNS
[44] = test system: SK-MEL-2 melanoma
[45] = test system: SK-MEL-28 melanoma
[46] = test system: SK-MEL-5 melanoma
[47] = test system: SK-OV-3 ovarian
[48] = test system: SN12C renal
[49] = test system: SN12K1 renal
[50] = test system: SNB-19 CNS
[51] = test system: SNB-75 CNS
[52] = test system: SNB-78 CNS
[53] = test system: SW-620 colon
[54] = test system: U251 CNS
[55] = test system: UACC-257 melanoma
[56] = test system: UACC-62 melanoma
[57] = test system: UO-31 renal
[58] = test system: XF 498 CNS

## COc1ccc(O)c2c(=O)c3c(OC)cc4c(c3oc12)[C@@H]1C=CO[C@@H]1O4
[1]
  GI50: 4.81 µM and 11.4 µM
  TGI: 41.3 µM and 71 µM
[2]
  GI50: 4.79 µM and 2.71 µM
  TGI: > 125 µM
[3]
  GI50: 1.66 µM and 0.86 µM
  TGI: 15.2 µM and 18.3 µM
[4]
  GI50: 33.9 µM and 89.7 µM
  TGI: > 125 µM
[5]
  GI50: 1.71 µM and 1.79 µM
  TGI: 38.9 µM and > 125 µM
[6]
  GI50: 0.14 µM
  TGI: 4.94 µM
[7]
  GI50: 9.06 µM
  TGI: 61.5 µM
[8]
  GI50: 0.0235 µM
  TGI: 1.46 µM
[9]
  GI50: 0.517 µM and 0.185 µM
[10]
  TGI: 1.5 µM and 9.41 µM
[11]
  GI50: 5.71 µM and 4.08 µM
  TGI: > 125 µM
[12]
  TGI: 119 µM
[13]
  GI50: 49.7 µM and 32.5 µM
  TGI: > 125 µM
[14]
  GI50: 3.87 µM
  TGI: 37.4 µM
[15]
  GI50: 3.47 µM and 0.396 µM
  TGI: 15.7 µM and 14.9 µM
[16]
  GI50: 8.53 µM and 2.59 µM
  TGI: 28.6 µM and 15 µM
[17]
  GI50: 6.86 µM and 35.1 µM
  TGI: 89.4 µM
[18]
  GI50: 1.09 µM and 1 µM
  TGI: 13.7 µM and 26.6 µM
[19]
  GI50: 45.1 µM and > 125 µM
  TGI: > 125 µM
[20]
  GI50: 0.886 µM and 0.316 µM
  TGI: 17.9 µM and 31.8 µM
[21]
  GI50: > 125 µM
  TGI: > 125 µM
[22]
  GI50: 16.9 µM and 8.5 µM
  TGI: > 125 µM
[23]
  GI50: 4.34 µM
  TGI: 72.8 µM
[24]
  GI50: 3.56 µM and 23.8 µM
  TGI: 29.8 µM and 113 µM
[25]
  GI50: 0.0221 µM and 0.0566 µM
  TGI: 1.25 µM and 5.77 µM
[26]
  GI50: 43.9 µM and 98.1 µM
  TGI: > 125 µM
[27]
  GI50: 12.8 µM and 5.38 µM
  TGI: 31.4 µM
[28]
  GI50: 0.713 µM and 0.106 µM
  TGI: 35.9 µM and 4.98 µM
[29]
  GI50: 3.31 µM and 2.7 µM
  TGI: 72.2 µM and > 125 µM
[30]
  GI50: 0.367 µM and 0.204 µM
  TGI: 71.4 µM and 41.4 µM
[31]
  GI50: 7.49 µM and 11.6 µM
  TGI: 65.4 µM and 99.2 µM
[32]
  GI50: 5.89 µM and 4.7 µM
  TGI: > 125 µM
[33]
  GI50: 4.7 µM and 2.48 µM
  TGI: 58.9 µM and 20.8 µM
[34]
  GI50: 4 µM and 4.72 µM
  TGI: > 125 µM
[35]
  GI50: 4.81 µM and 1.59 µM
  TGI: 52.3 µM and > 125 µM
[36]
  GI50: 3.58 µM and 3.72 µM
  TGI: 111 µM
[37]
  GI50: 0.0658 µM
  TGI: 30.2 µM
[38]
  GI50: 2.61 µM
  TGI: > 125 µM
[39]
  TGI: 60.5 µM and > 125 µM
[40]
  GI50: 5.17 µM and 10.6 µM
  TGI: 19.7 µM and 30.4 µM
[41]
  GI50: 4.59 µM and 4.66 µM
  TGI: 57.1 µM and 37.4 µM
[42]
  GI50: 5.72 µM and 9.92 µM
  TGI: 40.1 µM and 34.5 µM
[43]
  GI50: 6.23 µM and 9.9 µM
  TGI: 32.2 µM and 31.7 µM
[44]
  GI50: 2.09 µM and 1.38 µM
  TGI: 8.69 µM and 7.22 µM
[45]
  GI50: 17.8 µM and 66.7 µM
  TGI: 63.2 µM and > 125 µM
[46]
  GI50: 5.42 µM and 3.78 µM
  TGI: 61.4 µM and 41.6 µM
[47]
  GI50: 3.12 µM and 4.62 µM
  TGI: 66.9 µM and 30.3 µM
[48]
  GI50: 6.9 µM and 9.51 µM
  TGI: 77.9 µM
[49]
  GI50: 3.79 µM
  TGI: 19.7 µM
[50]
  GI50: 11.3 µM and 17.7 µM
  TGI: 73.9 µM and 90.3 µM
[51]
  GI50: 4 µM and 3.83 µM
  TGI: 33.6 µM and 14.1 µM
[52]
  GI50: 26.4 µM
  TGI: 92.7 µM
[53]
  GI50: 4.87 µM and 6.51 µM
  TGI: 49.8 µM
[54]
  GI50: 6.89 µM and 8.54 µM
  TGI: 53.9 µM and 25.3 µM
[55]
  TGI: > 125 µM
[56]
  GI50: 1.23 µM and 0.412 µM
  TGI: 30.8 µM and 8.61 µM
[57]
  GI50: 4.3 µM and 4.99 µM
  TGI: 51.7 µM
[58]
  GI50: 3.04 µM
  TGI: 17.6 µM

— PubChem BioAssay (NCI)
